The source of these data is US20140037642A1, “METHODS AND COMPOSITIONS RELATING TO INHIBITION OF IGF-1R” (AMGEN INC., priority 2011, published 2014).

For series [1] the following is noted: human, in vivo.
The test system of series [2] is metastatic pancreatic cancer patients. The note with it: in vivo. As to the method: Multivariate analysis was performed to evaluate the effect of exposure on OS and PFS adjusting for potential confounding factors using Cox proportional hazard models with a forward selection technique. All baseline factors were initial candidates in the forward selection model. Only the most statistically significant variables were added to the final model after the forward selection process.
The effect of exposure on the incidence of selected adverse events (hearing and vestibular disorders, hepatic disorders, hyperglycemia, infusion reaction, neutropenia, rash and skin-related toxicity, thrombocytopenia, and venous embolic and thrombotic events) was summarized with descriptive statistics.
The effect of exposure on changes in selected laboratory values (aspartate transaminase, alanine transaminase, fasting glucose, total neutrophils, and platelets) was assessed by linear regression.

The subject of another series is tumors in human subjects. As to conditions: in vivo.
The test system of series [3] is metastatic pancreatic cancer patients. The series is described as follows: Overall survival in baseline circulating biomarker subgroups of the phase 2 study. The class given is in vivo, human. As to conditions: plus gemcitabine. The source says: To establish the relationship between levels of these baseline markers and overall survival, a Cox proportional hazard model was used to calculate hazard ratios (HR) using normalized log transformed marker concentrations. This analysis tests the risk of death associated with a unit increase in the normalized log baseline biomarker and this risk is expressed as a hazard ratio. Because of the small sample size, it is difficult to dissect prognostic associations from relationships that are modified by treatment with ganitumab relative to placebo, i.e., predictive. This is because the addition of treatment effect adds a variable to the analysis that compromises the power of the test masking significant predictive relationships that may exist. However even a prognostic relationship identified in this analysis is important because it informs the hypothesized relationship between circulating bioavailable ligands and the adaptation of the tumor to IGF-1R dependent progression, and in turn sensitivity to inhibitors that block IGF-1R or downstream signaling pathways.
This allows a direct test of the predictive value of using these markers in a dichotomized way to predict OS in pancreatic cancer patients that are treated with inhibitors of IGF-1R.
To represent these relationships Kaplan-Maier plots were generated that show the OS for the high and low subgroups by plotting the fraction of patients in each sub-group that survive against time.

Turning to Ganitumab, in series [1], the “Q (L/h), inter-compartmental clearance, typical value” worked out at 0.0261 L/h. Besides, the “Vp (L), peripheral volume of distribution, typical value” in series [1] is 3.41 L. Also, the “dependence of the incidence of AEs on exposure” value in series [2] is “not dependent on exposure”. Moreover, the “spontaneous bleeding in subjects with thrombocytopenia” value in the series on tumors in human subjects is recorded as “no cases of spontaneous bleeding”. Also, in the series on tumors in human subjects, the thrombocytopenia entry is reported as “Some subjects exhibited grade 3 or 4 thrombocytopenia”. Further, the “Median KM OS Time, Months” value in series [3] (Free IGF-1 High subgroup) worked out at 11.14 Months; in series [3] (Free IGF-1 Low subgroup), 8.84 Months; in series [3] (IGF-2 High subgroup) it was 16 Months; in series [3] (IGF-2 Low subgroup) it was 5.59 Months; in series [3] (IGFBP-1 High subgroup), 5.59 Months; in series [3] (IGFBP-2 High subgroup) it was 5.52 Months. Also, the “Median KM OS Time, Months” value in series [3] (IGFBP-2 Low subgroup) was 12.65 Months; in series [3] (IGFBP-3 High subgroup), 16 Months; in series [3] (IGFBP-3 Low subgroup) it was 5.52 Months; in series [3] (IGFBP-4 High subgroup), 12.09 Months; in series [3] (IGFBP-4 Low subgroup) it was 8.59 Months; in series [3] (Total IGF-1 High subgroup), 16 Months. For the same substance, the “Median KM OS Time, Months” value in series [3] (Total IGF-1 Low subgroup) amounted to 4.67 Months.
